From patent US6858018B1
Some compounds may have been tested in ways that are not shown here.

Test: in vitro iontophoretic delivery through excised porcine skin in flow-through cells
Settings: 500 uA

remifentanil hydrochloride
Flux (Exp #14, 20 mg/ml in 10 mM acetic acid, 2 mg, 1.00 hrs): 0.00 μg/min/cm^2 | Flux (Exp #14, 20 mg/ml in 10 mM acetic acid, 2 mg, 2.00 hrs): 0.00 μg/min/cm^2 | Flux (Exp #14, 20 mg/ml in 10 mM acetic acid, 2 mg, 3.00 hrs): 0.00 μg/min/cm^2 | Flux (Exp #14, 20 mg/ml in 10 mM acetic acid, 2 mg, 4.00 hrs): 0.01 μg/min/cm^2 | Flux (Exp #14, 20 mg/ml in 10 mM acetic acid, 2 mg, 5.00 hrs): 0.02 μg/min/cm^2 | Flux (Exp #14, 20 mg/ml in 10 mM acetic acid, 2 mg, 6.00 hrs): 0.02 μg/min/cm^2 | Flux (Exp #14, 20 mg/ml in 10 mM acetic acid, 2 mg, 7.00 hrs): 0.03 μg/min/cm^2 | Flux (Exp #14, 20 mg/ml in 10 mM acetic acid, 2 mg, 8.00 hrs): 0.03 μg/min/cm^2 | Flux (Exp #14, 20 mg/ml in 10 mM acetic acid, 2 mg, 9.00 hrs): 0.02 μg/min/cm^2 | Flux (Exp #14, 20 mg/ml in 10 mM acetic acid, 2 mg, 10.00 hrs): 0.02 μg/min/cm^2 | Flux (Exp #14, 20 mg/ml in 10 mM acetic acid, 2 mg, 11.00 hrs): 0.02 μg/min/cm^2 | Flux (Exp #14, 20 mg/ml in 10 mM acetic acid, 2 mg, 12.00 hrs): 0.02 μg/min/cm^2 | Flux (Exp #14, 20 mg/ml in 10 mM acetic acid, 2 mg, 13.00 hrs): 0.03 μg/min/cm^2 | Flux (Exp #14, 20 mg/ml in 10 mM acetic acid, 2 mg, 14.00 hrs): 0.03 μg/min/cm^2 | Flux (Exp #14, 20 mg/ml in 10 mM acetic acid, 2 mg, 15.00 hrs): 0.03 μg/min/cm^2 | Flux (Exp #14, 20 mg/ml in 10 mM acetic acid, 2 mg, 16.00 hrs): 0.04 μg/min/cm^2 | Flux (Exp #14, 20 mg/ml in 10 mM acetic acid, 2 mg, 17.00 hrs): 0.05 μg/min/cm^2 | Flux (Exp #14, 20 mg/ml in 10 mM acetic acid, 2 mg, 18.00 hrs): 0.05 μg/min/cm^2 | Flux (Exp #14, 20 mg/ml in 10 mM acetic acid, 2 mg, 19.00 hrs): 0.06 μg/min/cm^2 | Flux (Exp #14, 20 mg/ml in 10 mM acetic acid, 2 mg, 20.00 hrs): 0.07 μg/min/cm^2 | Flux (Exp #14, 20 mg/ml in 10 mM acetic acid, 2 mg, 21.00 hrs): 0.07 μg/min/cm^2 | Flux (Exp #14, 20 mg/ml in 10 mM acetic acid, 2 mg, 22.00 hrs): 0.08 μg/min/cm^2 | Flux (Exp #14, 20 mg/ml in 10 mM acetic acid, 2 mg, 23.00 hrs): 0.09 μg/min/cm^2 | Flux (Exp #14, 20 mg/ml in 10 mM acetic acid, 2 mg, 24.00 hrs): 0.10 μg/min/cm^2 | Flux (Exp #15, 2.5 mg/ml in 10 mM acetic acid, PVA gel, 0.375 mg, 0.00 hrs): 0.00 μg/min/cm^2 | Flux (Exp #15, 2.5 mg/ml in 10 mM acetic acid, PVA gel, 0.375 mg, 1.00 hrs): 0.00 μg/min/cm^2 | Flux (Exp #15, 2.5 mg/ml in 10 mM acetic acid, PVA gel, 0.375 mg, 2.00 hrs): 0.00 μg/min/cm^2 | Flux (Exp #15, 2.5 mg/ml in 10 mM acetic acid, PVA gel, 0.375 mg, 3.00 hrs): 0.01 μg/min/cm^2 | Flux (Exp #15, 2.5 mg/ml in 10 mM acetic acid, PVA gel, 0.375 mg, 4.00 hrs): 0.02 μg/min/cm^2 | Flux (Exp #15, 2.5 mg/ml in 10 mM acetic acid, PVA gel, 0.375 mg, 5.00 hrs): 0.03 μg/min/cm^2 | Flux (Exp #15, 2.5 mg/ml in 10 mM acetic acid, PVA gel, 0.375 mg, 6.00 hrs): 0.04 μg/min/cm^2 | Flux (Exp #15, 2.5 mg/ml in 10 mM acetic acid, PVA gel, 0.375 mg, 7.00 hrs): 0.05 μg/min/cm^2 | Flux (Exp #15, 2.5 mg/ml in 10 mM acetic acid, PVA gel, 0.375 mg, 8.00 hrs): 0.06 μg/min/cm^2 | Flux (Exp #15, 2.5 mg/ml in 10 mM acetic acid, PVA gel, 0.375 mg, 9.00 hrs): 0.07 μg/min/cm^2 | Flux (Exp #15, 2.5 mg/ml in 10 mM acetic acid, PVA gel, 0.375 mg, 10.00 hrs): 0.07 μg/min/cm^2 | Flux (Exp #15, 2.5 mg/ml in 10 mM acetic acid, PVA gel, 0.375 mg, 11.00 hrs): 0.09 μg/min/cm^2 | Flux (Exp #15, 2.5 mg/ml in 10 mM acetic acid, PVA gel, 0.375 mg, 12.00 hrs): 0.10 μg/min/cm^2 | Flux (Exp #15, 2.5 mg/ml in 10 mM acetic acid, PVA gel, 0.375 mg, 13.00 hrs): 0.11 μg/min/cm^2 | Flux (Exp #15, 2.5 mg/ml in 10 mM acetic acid, PVA gel, 0.375 mg, 14.00 hrs): 0.10 μg/min/cm^2 | Flux (Exp #15, 2.5 mg/ml in 10 mM acetic acid, PVA gel, 0.375 mg, 15.00 hrs): 0.10 μg/min/cm^2 | Flux (Exp #15, 2.5 mg/ml in 10 mM acetic acid, PVA gel, 0.375 mg, 16.00 hrs): 0.10 μg/min/cm^2 | Flux (Exp #15, 2.5 mg/ml in 10 mM acetic acid, PVA gel, 0.375 mg, 17.00 hrs): 0.09 μg/min/cm^2 | Flux (Exp #15, 2.5 mg/ml in 10 mM acetic acid, PVA gel, 0.375 mg, 18.00 hrs): 0.08 μg/min/cm^2 | Flux (Exp #15, 2.5 mg/ml in 10 mM acetic acid, PVA gel, 0.375 mg, 19.00 hrs): 0.07 μg/min/cm^2 | Flux (Exp #15, 2.5 mg/ml in 10 mM acetic acid, PVA gel, 0.375 mg, 20.00 hrs): 0.07 μg/min/cm^2 | Flux (Exp #15, 2.5 mg/ml in 10 mM acetic acid, PVA gel, 0.375 mg, 21.00 hrs): 0.07 μg/min/cm^2 | Flux (Exp #15, 2.5 mg/ml in 10 mM acetic acid, PVA gel, 0.375 mg, 22.00 hrs): 0.06 μg/min/cm^2 | Flux (Exp #15, 2.5 mg/ml in 10 mM acetic acid, PVA gel, 0.375 mg, 23.00 hrs): 0.06 μg/min/cm^2 | Flux (Exp #15, 2.5 mg/ml in 10 mM acetic acid, PVA gel, 0.375 mg, 24.00 hrs): 0.06 μg/min/cm^2 | Flux (Exp #15, 2.5 mg/ml in 10 mM acetic acid, PVA gel, 0.375 mg, −1.00 hrs): 0.00 μg/min/cm^2 | Flux (Exp #16, 10 mg/ml in 10 mM acetic acid, PVA gel, 1.5 mg, 0.00 hrs): 0.00 μg/min/cm^2 | Flux (Exp #16, 10 mg/ml in 10 mM acetic acid, PVA gel, 1.5 mg, 1.00 hrs): 0.00 μg/min/cm^2 | Flux (Exp #16, 10 mg/ml in 10 mM acetic acid, PVA gel, 1.5 mg, 2.00 hrs): 0.00 μg/min/cm^2 | Flux (Exp #16, 10 mg/ml in 10 mM acetic acid, PVA gel, 1.5 mg, 3.00 hrs): 0.01 μg/min/cm^2 | Flux (Exp #16, 10 mg/ml in 10 mM acetic acid, PVA gel, 1.5 mg, 4.00 hrs): 0.02 μg/min/cm^2 | Flux (Exp #16, 10 mg/ml in 10 mM acetic acid, PVA gel, 1.5 mg, 5.00 hrs): 0.03 μg/min/cm^2 | Flux (Exp #16, 10 mg/ml in 10 mM acetic acid, PVA gel, 1.5 mg, 6.00 hrs): 0.03 μg/min/cm^2 | Flux (Exp #16, 10 mg/ml in 10 mM acetic acid, PVA gel, 1.5 mg, 7.00 hrs): 0.04 μg/min/cm^2 | Flux (Exp #16, 10 mg/ml in 10 mM acetic acid, PVA gel, 1.5 mg, 8.00 hrs): 0.04 μg/min/cm^2 | Flux (Exp #16, 10 mg/ml in 10 mM acetic acid, PVA gel, 1.5 mg, 9.00 hrs): 0.04 μg/min/cm^2 | Flux (Exp #16, 10 mg/ml in 10 mM acetic acid, PVA gel, 1.5 mg, 10.00 hrs): 0.05 μg/min/cm^2 | Flux (Exp #16, 10 mg/ml in 10 mM acetic acid, PVA gel, 1.5 mg, 11.00 hrs): 0.06 μg/min/cm^2 | Flux (Exp #16, 10 mg/ml in 10 mM acetic acid, PVA gel, 1.5 mg, 12.00 hrs): 0.06 μg/min/cm^2 | Flux (Exp #16, 10 mg/ml in 10 mM acetic acid, PVA gel, 1.5 mg, 13.00 hrs): 0.08 μg/min/cm^2 | Flux (Exp #16, 10 mg/ml in 10 mM acetic acid, PVA gel, 1.5 mg, 14.00 hrs): 0.08 μg/min/cm^2 | Flux (Exp #16, 10 mg/ml in 10 mM acetic acid, PVA gel, 1.5 mg, 15.00 hrs): 0.08 μg/min/cm^2 | Flux (Exp #16, 10 mg/ml in 10 mM acetic acid, PVA gel, 1.5 mg, 16.00 hrs): 0.10 μg/min/cm^2 | Flux (Exp #16, 10 mg/ml in 10 mM acetic acid, PVA gel, 1.5 mg, 17.00 hrs): 0.10 μg/min/cm^2 | Flux (Exp #16, 10 mg/ml in 10 mM acetic acid, PVA gel, 1.5 mg, 18.00 hrs): 0.11 μg/min/cm^2 | Flux (Exp #16, 10 mg/ml in 10 mM acetic acid, PVA gel, 1.5 mg, 19.00 hrs): 0.11 μg/min/cm^2 | Flux (Exp #16, 10 mg/ml in 10 mM acetic acid, PVA gel, 1.5 mg, 20.00 hrs): 0.12 μg/min/cm^2 | Flux (Exp #16, 10 mg/ml in 10 mM acetic acid, PVA gel, 1.5 mg, 21.00 hrs): 0.11 μg/min/cm^2 | Flux (Exp #16, 10 mg/ml in 10 mM acetic acid, PVA gel, 1.5 mg, 22.00 hrs): 0.12 μg/min/cm^2 | Flux (Exp #16, 10 mg/ml in 10 mM acetic acid, PVA gel, 1.5 mg, 23.00 hrs): 0.12 μg/min/cm^2 | Flux (Exp #16, 10 mg/ml in 10 mM acetic acid, PVA gel, 1.5 mg, 24.00 hrs): 0.12 μg/min/cm^2 | Flux (Exp #16, 10 mg/ml in 10 mM acetic acid, PVA gel, 1.5 mg, −1.00 hrs): 0.00 μg/min/cm^2
